Data published in ChEMBL document CHEMBL1148802, “Discovery and synthesis of HIV integrase inhibitors: development of potent and orally bioavailable N-methyl pyrimidones” (J Med Chem, 2007).

Key:
Homo sapiens = organism: Homo sapiens; test: Protein binding in human plasma; details: read-out: PPB (converted)
[1] = Protein binding in Sprague-Dawley rat plasma; type: ADME, cell-free; details: read-out: PPB (converted)

Row | Structure (SMILES) | fraction unbound (Homo sapiens) | fraction unbound [1]
1 | CN1C[C@@H](F)C[C@H]1c1nc(C(=O)NCc2ccc(F)cc2)c(O)c(=O)n1C | 0.06 | –
2 | CN1C[C@H](F)C[C@H]1c1nc(C(=O)NCc2ccc(F)cc2)c(O)c(=O)n1C | 0.14 | –
3 | CN1CCCCC1c1nc(O)c(O)c(C(=O)NCc2ccc(F)cc2)n1 (centres undefined) | 0.05 | 0.05
